Legend:
[1] = target: Dual specificity protein kinase CLK2 (Homo sapiens, UniProt P49760)
[2] = target: Dual specificity protein kinase CLK1 (Homo sapiens, UniProt P49759)

Sequences of proteins named here, by UniProt entry; tags and fusion partners are left off. A change or cut given only in a name is not applied to a line headed by its entry.
UniProt P49760, whole entry: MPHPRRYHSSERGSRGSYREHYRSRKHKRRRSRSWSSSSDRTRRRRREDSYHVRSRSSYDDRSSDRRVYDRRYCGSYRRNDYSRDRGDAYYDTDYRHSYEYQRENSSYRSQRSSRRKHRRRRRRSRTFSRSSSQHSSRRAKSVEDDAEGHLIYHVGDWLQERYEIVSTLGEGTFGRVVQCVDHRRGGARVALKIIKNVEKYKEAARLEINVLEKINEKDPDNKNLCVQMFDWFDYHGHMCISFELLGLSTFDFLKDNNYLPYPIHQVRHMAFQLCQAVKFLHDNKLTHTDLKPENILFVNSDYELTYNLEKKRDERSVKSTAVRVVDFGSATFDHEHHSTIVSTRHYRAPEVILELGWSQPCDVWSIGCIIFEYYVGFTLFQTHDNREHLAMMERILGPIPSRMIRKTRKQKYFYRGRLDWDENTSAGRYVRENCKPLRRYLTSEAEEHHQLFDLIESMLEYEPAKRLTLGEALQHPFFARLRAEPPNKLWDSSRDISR
UniProt P49759: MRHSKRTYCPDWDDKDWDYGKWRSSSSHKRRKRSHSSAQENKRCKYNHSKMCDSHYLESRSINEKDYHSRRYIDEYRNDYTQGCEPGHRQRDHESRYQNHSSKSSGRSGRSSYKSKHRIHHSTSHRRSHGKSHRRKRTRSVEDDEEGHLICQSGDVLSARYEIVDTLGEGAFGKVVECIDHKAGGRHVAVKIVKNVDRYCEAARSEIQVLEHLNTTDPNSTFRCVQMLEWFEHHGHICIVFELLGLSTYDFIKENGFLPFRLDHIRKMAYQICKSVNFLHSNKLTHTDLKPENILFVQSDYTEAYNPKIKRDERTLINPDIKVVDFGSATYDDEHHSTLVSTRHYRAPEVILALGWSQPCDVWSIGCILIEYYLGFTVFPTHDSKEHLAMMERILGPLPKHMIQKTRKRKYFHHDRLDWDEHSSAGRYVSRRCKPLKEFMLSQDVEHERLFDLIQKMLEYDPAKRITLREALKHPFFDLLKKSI

| SMILES | IC50 [1] [µM] | IC50 [2] [µM] |
| --- | --- | --- |
| O=C1NC(Nc2ccccc2)=N/C1=C\c1ccc2c(c1)OCO2 | 0.13 | 0.023 |
| CN1CCC(NC2=N/C(=C\c3ccc4ncsc4c3)C(=O)N2)C1=O (racemic) | 0.344 |  |
